Results published in PubChem BioAssay AID686979 (National Center for Advancing Translational Sciences (NCATS), 2013).
Values joined by “and” are separate entries in the source; they are usually repeats but may differ in a detail not shown here. Equal entries are not always repeated. Only a part is listed here, and it is no random draw. Records with an inconclusive call do not appear. A structure can be active in one record and inactive in another. Active and inactive are the calls of the source. Calls come from the whole dose curve; as a rule, active = well fitted inhibition curve with a large enough effect; inconclusive = small, poorly fitted or top-dose-only effect; inactive = flat fitted curve, though single readings scatter.

Experiment: qHTS for Inhibitors of human tyrosyl-DNA phosphodiesterase 1 (TDP1): qHTS in cells in presence of CPT; note: nearly all actives have a fitted effect of over 55% in size
Details: chicken DT40 Tdp1-/-;hTDP1 cells + 20 nM CPT, ATP luminescence, 48 h; series mostly up to 46.2 µM; activity change, negative = growth inhibition: at the top concentration
% is set by controls: 0 for no effect and ±100 for the full control effect; potency is the fitted concentration of half-maximal effect.

Row | SMILES | activity change, negative = growth inhibition | Potency
1 | CN1CCC(=C2c3ccccc3CCc3sccc32)CC1 | inactive: -78.5% | 
2 | Clc1ccc(N2CCN(Cc3c[nH]c4ncccc34)CC2)cc1 |  | inactive and active: 4.11 µM
3 | CC[n+]1c(/C=C/Nc2ccccc2)oc2ccc(OC)cc21 |  | active: 9.2 µM
4 | CC(C(O)c1ccc(O)cc1)N1CCC(Cc2ccccc2)CC1 (stereo not drawn) |  | active: 8.41 µM and active: 13 µM
5 | CN(Cc1cnc2nc(N)nc(N)c2n1)c1ccc(C(=O)NC(CCC(=O)O)C(=O)O)cc1 (stereo not drawn) |  | active: 46.1 nM and active: 36.6 nM
6 | COc1cc(NCCCCCCCN)c2ncccc2c1 |  | active: 20.6 µM
7 | Nc1nccc(NCCSCc2ccccc2)n1 |  | active: 20.6 µM
8 | CC[n+]1c(/C=C/N(C)c2ccccc2)oc2ccc(Cl)cc21 |  | active: 2.91 µM
9 | CC(=O)C1=NN(c2ccccc2)C(c2ccc3c(c2)OCO3)N1c1ccc(N2CCOCC2)cc1 (stereo not drawn) |  | active: 23.1 µM
10 | CN1CCN(C2=Nc3ccccc3Oc3ccc(Cl)cc32)CC1 |  | inactive
11 | COc1ccc(Nc2nc(Nc3ccc(OC)cc3)nc(SC3=NCCS3)n2)cc1 |  | active: 23.1 µM
12 | CC[n+]1c(/C=C/N(C)c2ccccc2)oc2ccccc21 |  | active: 0.731 µM
13 | CCN(CC)CCCC(C)Nc1c2ccc(Cl)cc2nc2ccc(OC)cc12 (stereo not drawn) |  | active: 5.62 µM and active: 2.91 µM
